Reference: PubChem BioAssay (EPA / NIEHS)
Values joined by “and” are separate entries in the source; they are usually repeats but may differ in a detail not shown here. Equal values may be shown once. This is a selection; strong and weak results do not stand in their true shares. A structure can be active in one record and inactive in another. Active and inactive are the calls of the source. How the source made its calls: active means hit-call score of the fitted dose curve at least 0.9, where 1 is the maximum; inactive means score below 0.9.

Sequences of proteins named here, by UniProt entry; tags and fusion partners are left off. A change or cut given only in a name is not applied to a line headed by its entry.
UniProt P17676: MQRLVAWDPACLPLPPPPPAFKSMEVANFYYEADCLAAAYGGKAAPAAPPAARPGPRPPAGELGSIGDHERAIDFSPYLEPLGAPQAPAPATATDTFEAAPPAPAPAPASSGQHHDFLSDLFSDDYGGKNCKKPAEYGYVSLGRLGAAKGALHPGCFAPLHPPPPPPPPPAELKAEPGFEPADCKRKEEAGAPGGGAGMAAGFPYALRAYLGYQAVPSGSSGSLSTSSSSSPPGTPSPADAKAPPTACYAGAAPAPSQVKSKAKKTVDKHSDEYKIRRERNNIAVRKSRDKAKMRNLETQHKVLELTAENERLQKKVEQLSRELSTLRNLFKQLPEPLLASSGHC
UniProt P10276, whole entry, looked up: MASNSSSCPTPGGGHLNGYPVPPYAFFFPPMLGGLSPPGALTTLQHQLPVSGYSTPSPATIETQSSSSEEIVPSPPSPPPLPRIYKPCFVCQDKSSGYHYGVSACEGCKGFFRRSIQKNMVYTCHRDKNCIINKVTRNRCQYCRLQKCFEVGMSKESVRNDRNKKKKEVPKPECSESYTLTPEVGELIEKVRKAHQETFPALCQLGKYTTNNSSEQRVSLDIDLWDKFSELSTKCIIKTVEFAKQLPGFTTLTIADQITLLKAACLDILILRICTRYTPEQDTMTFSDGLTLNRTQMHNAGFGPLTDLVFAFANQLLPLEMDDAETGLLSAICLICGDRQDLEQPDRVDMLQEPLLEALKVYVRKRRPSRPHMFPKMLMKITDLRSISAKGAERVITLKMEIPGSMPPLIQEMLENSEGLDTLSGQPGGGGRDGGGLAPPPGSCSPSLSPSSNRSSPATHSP
UniProt Q01094: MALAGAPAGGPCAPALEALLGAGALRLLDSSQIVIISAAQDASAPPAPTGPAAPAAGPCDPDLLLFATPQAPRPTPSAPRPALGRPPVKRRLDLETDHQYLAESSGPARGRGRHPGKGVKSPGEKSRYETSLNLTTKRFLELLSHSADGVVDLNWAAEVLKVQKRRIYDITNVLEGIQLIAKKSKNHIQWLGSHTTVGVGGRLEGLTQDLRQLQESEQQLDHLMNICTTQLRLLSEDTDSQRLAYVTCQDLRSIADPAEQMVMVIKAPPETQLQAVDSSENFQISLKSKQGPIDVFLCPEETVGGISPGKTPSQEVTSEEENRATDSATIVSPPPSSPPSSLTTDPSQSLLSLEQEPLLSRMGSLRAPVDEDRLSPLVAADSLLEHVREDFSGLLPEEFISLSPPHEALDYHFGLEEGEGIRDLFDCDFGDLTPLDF

Experiments:
[1] = ATG_CRE_CIS: Attagene CIS-FACTORIAL HepG2 Assay for human cAMP Responsive Element (CRE) binding protein 3 (AID 2282926); conditions: HepG2 CRE cis-reporter, Attagene multiplexed mRNA; actives raise or lower the signal
In short: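 Multiplexed transcription-unit reporters transfected into HepG2; 24 h dosing; RT-PCR/capillary electrophoresis fluorescence read-out; bidirectional fit vs DMSO.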

[2] = biological target: CCAAT/enhancer-binding protein beta (Homo sapiens) (UniProt P17676); experiment: ATG_C_EBP_CIS: Attagene CIS-FACTORIAL HepG2 Assay for human CCAAT/Enhancer Binding Protein (C/EBP) beta (AID 2282927); conditions: HepG2 Attagene cis-factorial transcription factor reporter; actives raise or lower the signal
In short: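 Endogenous transcription factor activity in human liver HepG2 cells is inferred from induction of a CEBPB-linked reporter mRNA. Exposure lasts 24 h; activity is fitted in both directions relative to DMSO.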

[3] = ATG_CMV_CIS: Attagene CIS-FACTORIAL HepG2 Assay for human CMV (Internal Marker) (AID 2282928); conditions: HepG2 CMV promoter reporter, transcription factor profiling; actives raise or lower the signal;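 further: endpoint acts as a background internal control marker rather than a target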
In short: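 Cell system: HepG2, transiently transfected multiple reporter units under cis promoters. Exposure: 24 h. Detection: RT-PCR, FAM labeling, HpaI digestion, capillary electrophoresis. Analysis: bidirectional, DMSO baseline.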

[4] = ATG_DR4_LXR_CIS: Attagene CIS-FACTORIAL HepG2 Assay for human Liver X Receptor (LXR), DR4 submotif (AID 2282929); conditions: HepG2 Attagene DR4 cis-reporter, mRNA transcription; actives raise or lower the signal
In short: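 HepG2 cells were transiently transfected with multiple cis-regulated reporter units and dosed for 24 hours. The DR4 reporter mRNA was quantified by RT-PCR, 6-FAM labelling and capillary electrophoresis. Bidirectional fits used DMSO as baseline.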

[5] = ATG_AP_1_CIS: Attagene CIS-FACTORIAL HepG2 Assay for human Activator Protein 1 (AP-1) (AID 2282931); conditions: HepG2 Attagene cis-factorial AP-1 reporter mRNA; actives raise or lower the signal
In short: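 HepG2 cells transiently transfected with cis-element-driven reporter transcription units, dosed for 24 hours. Reporter mRNA measured by RT-PCR, 6-FAM labelling, HpaI digestion and capillary electrophoresis. Bidirectional fitting against DMSO baseline.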

[6] = ATG_AP_2_CIS: Attagene CIS-FACTORIAL HepG2 Assay for human Activator Protein 2 (AP-2) (AID 2282932); conditions: HepG2 AP-2 cis-reporter, Attagene transcription factor profiling; actives raise or lower the signal
In short: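 Step one: transient transfection of HepG2 with reporter transcription units. Step two: 24 h chemical exposure. Step three: RNA extraction, RT-PCR, labelled fragment analysis by capillary electrophoresis; DMSO serves as baseline.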

[7] = ATG_BRE_CIS: Attagene CIS-FACTORIAL HepG2 Assay for human Bone Morphogenetic Protein (BMP) Response Element (BRE) (AID 2282933); conditions: HepG2 BMP response element reporter, Attagene transcription factor profiling; actives raise or lower the signal
In short: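 Endogenous transcription factor activity at a BMP response element was monitored in transfected HepG2 cells 24 h after dosing. Fluorescent RT-PCR products were resolved by capillary electrophoresis, and activity was fitted in both directions versus DMSO.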

[8] = biological target: Retinoic acid receptor alpha (Homo sapiens) (UniProt P10276); experiment: ATG_DR5_RAR_CIS: Attagene CIS-FACTORIAL HepG2 Assay for human Retinoic Acid Receptor Alpha (RARE), DR5 submotif (AID 2282934); conditions: HepG2 Attagene cis-factorial RARE DR5 reporter, mRNA; actives raise or lower the signal;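 on AC50: reporter responds to endogenous RAR alpha beta and gamma in HepG2 not RARA alone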
[9] = biological target: Transcription factor E2F1 (Homo sapiens) (UniProt Q01094); experiment: ATG_E2F_CIS: Attagene CIS-FACTORIAL HepG2 Assay for human E2F Transcription Factor 1 (AID 2282935); conditions: HepG2 Attagene cis-reporter, E2F reporter RNA transcripts; actives raise or lower the signal
In short: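 Total RNA from 24 h-treated, reporter-transfected HepG2 cells undergoes DNase I treatment, oligo(dT) reverse transcription, PCR and 6-FAM primer extension before capillary electrophoresis.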

[10] = APR_HepG2_P-H2AX_72hr: Apredica 72-hour HepG2 Assay for H2AX Phosphorylation (AID 2282916); conditions: imaging, actives raise or lower the signal;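 further: phospho-histone H2A.x immunostain intensity per cell marking DNA damage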
In short: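 HepG2 human liver cells were exposed for 72 hr to compounds at 0.39–200 uM (10 concentrations, duplicate per plate) in 0.5% v/v DMSO. Fixed, permeabilized cells were immunolabeled for phospho-histone H2A.x with Hoechst 33342 and imaged by HCS fluorescence; bidirectional fit versus DMSO.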

[11] = APR_HepG2_MitoMembPot_72hr: Apredica 72-hour HepG2 Assay for Mitochondrial Membrane Potential (AID 2282917); conditions: imaging, actives raise or lower the signal
In short: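 Membrane potential read by MitoTracker Red CMXRos (250 nM, 30 min, pre-fixation) fluorescence imaging of HepG2 after 72 hr exposure. Ten concentrations, 0.39–200 uM, duplicate wells, 0.5% DMSO; fitted in both directions against DMSO baseline.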

[12] = APR_HepG2_MitoticArrest_72hr: Apredica 72-hour HepG2 Assay for Mitotic Arrest (AID 2282918); conditions: high-content imaging, actives raise or lower the signal
In short: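 High-content imaging of fixed human HepG2 cells after 72 h compound exposure (0.39–200 uM, duplicates, 0.5% DMSO); mitotic arrest scored from phospho-histone H3 and nuclear Hoechst staining relative to DMSO.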

[13] = APR_HepG2_P-H2AX_24hr: Apredica 24-hour HepG2 Assay for H2AX Phosphorylation (AID 2282920); conditions: high-content imaging, actives raise or lower the signal
In short: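 High-content imaging of phospho-histone H2A.x immunofluorescence, nuclei counterstained with Hoechst 33342, in fixed HepG2 cells. Compounds ran 0.39–200 uM in duplicate for 24 h, final DMSO 0.5%. Signal change fitted both directions against DMSO.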

[14] = APR_HepG2_StressKinase_72hr: Apredica 72-hour HepG2 Assay for Stress Kinase (AID 2282921); conditions: HepG2 stress kinase (phospho-c-Jun) imaging, actives raise or lower the signal
In short: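 Cells were exposed for 72 h to ten concentrations (0.39–200 uM, duplicate) at 0.5% v/v DMSO final, then fixed with 3.7% formaldehyde, permeabilized and immunostained for phospho-c-Jun (Cy3 secondary) with Hoechst nuclear counterstain.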

[15] = APR_HepG2_StressKinase_24hr: Apredica 24-hour HepG2 Assay for Stress Kinase (AID 2282922); conditions: HepG2 stress kinase (phospho-c-Jun) imaging, actives raise or lower the signal
In short: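 HepG2, 24 hr dosing, 0.39–200 uM in duplicate, 0.5% DMSO; formaldehyde fix (3.7%), 0.5% Triton X-100; anti-phospho-c-Jun + Cy3 secondary, Hoechst counterstain; ArrayScan imaging; bidirectional curve fit vs DMSO baseline.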

[16] = APR_HepG2_MitoMass_72hr: Apredica 72-hour HepG2 Assay for Mitochondrial Mass (AID 2282924); conditions: high-content imaging, actives raise or lower the signal;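 further: MitoTracker Red CMXRos stain intensity per cell imaged as mitochondrial mass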
In short: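 HepG2, 72 hr cmpd, 10 conc 0.39–200 uM in dup, DMSO 0.5% v/v. MitoTracker Red CMXRos 250 nM 30 min pre-fix; formaldehyde 3.7% fix 30 min RT. HCS imaging, gain/loss fit vs DMSO.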

[17] = APR_HepG2_NuclearSize_72hr: Apredica 72-hour HepG2 Assay for Nuclear Size (AID 2282925); conditions: high-content imaging, actives raise or lower the signal
In short: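 HepG2; cpd 0.39–200 uM, 10 conc, duplicate; 72 h; DMSO 0.5% v/v; fix 3.7% formaldehyde 30 min RT; Triton permeabilization; Hoechst 2 ug/mL; HCS imaging 20x; nuclear diameter; gain/loss fit vs DMSO.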

[18] = APR_HepG2_CellLoss_72hr: Apredica 72-hour HepG2 Assay for Cell Loss (AID 2282915); conditions: high-content imaging
[19] = APR_HepG2_MicrotubuleCSK_72hr: Apredica 72-hour HepG2 Assay for Microtubule CSK Stabilty (AID 2282919); conditions: HepG2 microtubule cytoskeleton, high-content imaging, actives raise or lower the signal
In short: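 Read-out is tubulin fluorescence intensity from high-content imaging of HepG2 cells, with nuclei identified by Hoechst 33342. Treatment lasts 72 h at 0.39–200 uM, and curves are fitted bidirectionally against the DMSO negative control.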

[20] = APR_HepG2_p53Act_72hr: Apredica 72-hour HepG2 Assay for p53 Activation (AID 2282923); conditions: high-content imaging, actives raise or lower the signal;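 further: average cellular p53 protein immunofluorescence intensity in HepG2 cells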
In short: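 Cells were dosed for 72 hr with compounds at 0.39–200 uM in duplicate (final DMSO 0.5% v/v), then fixed in 3.7% formaldehyde, permeabilized with Triton X-100 and immunostained for p53 (Cy5) with Hoechst 33342 nuclear counterstain.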

Measured: AC50

CC(C)CCCCCCCOP(OCCCCCCCC(C)C)Oc1ccccc1
active: [4] 125 µM | [5] 100 µM
inactive: [1] | [2] | [3] | [6] | [7] | [8] | [9]

CCCCC(CC)CO[P+](=O)OCC(CC)CCCC (stereo not given)
inactive: [1] | [2] | [3] | [4] | [5] | [6] | [7] | [8] | [9]

O=[N+]([O-])c1ccc([N+](=O)[O-])cc1
active: [3] 145 µM | [4] 41.4 µM | [5] 164 µM | [9] 144 µM
inactive: [1] | [2] | [6] | [7] | [8]

CC(C)OP(=S)(OC(C)C)SCCNS(=O)(=O)c1ccccc1
active: [13] 113 µM and 110 µM | [15] 121 µM and 119 µM | [16] 92.8 µM
inactive: [10] | [11] | [12] | [13] | [14] | [15] | [16] | [17] | [1] | [2] | [3] | [4] | [5] | [6] | [7] | [9]

O=P(Cl)(Oc1ccccc1)Oc1ccccc1
inactive: [1] | [2] | [3] | [4] | [5] | [6] | [7] | [9]

O=C(Cl)OCCOC(=O)Cl
inactive: [1] | [2] | [3] | [4] | [5] | [6] | [7] | [8] | [9]

CN(C(=O)Cc1cccc2occc12)[C@H]1CC[C@@]2(CCCO2)C[C@@H]1N1CCCC1
active: [3] 79.1 µM
inactive: [18] | [10] | [11] | [12] | [19] | [13] | [14] | [15] | [20] | [16] | [17] | [1] | [2] | [4] | [5] | [6] | [7] | [8] | [9]

O=[P+](Oc1ccccc1)Oc1ccccc1
inactive: [1] | [2] | [3] | [4] | [5] | [6] | [7] | [8] | [9]

O=C1C2CC=CCC2C(=O)N1SC(Cl)(Cl)C(Cl)Cl (stereo not given)
inactive: [10] | [13] | [14] | [15] | [20] | [17] | [1] | [2] | [3] | [4] | [5] | [6] | [7] | [8] | [9]
active: [11] 99.7 µM | [12] 100 µM | [19] 18.4 µM | [16] 20.8 µM

CCCCOP(OCCCC)OCCCC
inactive: [1] | [2] | [3] | [4] | [5] | [6] | [7] | [8] | [9]

O=[p+]1oc2ccccc2c2ccccc21 (stereo not given)
inactive: [1] | [2] | [3] | [4] | [5] | [6] | [7] | [8] | [9]

O=[As]c1ccccc1 (stereo not given)
active: [3] 0.271 µM | [4] 0.154 µM | [7] 0.744 µM | [8] 0.524 µM
inactive: [2] | [5] | [6] | [9]

Cc1cc([N+](=O)[O-])cc([N+](=O)[O-])c1O
active: [18] 66.1 µM | [10] 104 µM | [12] 81.7 µM | [19] 86.7 µM | [20] 98.6 µM | [16] 104 µM | [1] 68.3 µM | [2] 74.1 µM | [5] 54.7 µM | [7] 100 µM
inactive: [11] | [13] | [14] | [15] | [17] | [3] | [4] | [6] | [8] | [9]

N#CSc1ccc([N+](=O)[O-])cc1[N+](=O)[O-]
active: [5] 16 µM
inactive: [1] | [3] | [6] | [7] | [8] | [9]

CCCCO[P+](=O)OCCCC
inactive: [1] | [2] | [3] | [4] | [5] | [6] | [7] | [9]

O=C(Cl)Oc1ccccc1
inactive: [1] | [2] | [3] | [4] | [5] | [6] | [7] | [8] | [9]

ClP(Cl)c1ccccc1
inactive: [1] | [2] | [3] | [4] | [5] | [6] | [7] | [8] | [9]
